# T1: dimeric murine CD40L (prepared substantially as described for the human CD40L) (murine, UniProt P27548 50-260, limits assumed)
# T1 construct: also called Murine Dimer; not shown: Fc region, by analogy with human CD40L/Fc; not described further
# T1 sequence (looked up): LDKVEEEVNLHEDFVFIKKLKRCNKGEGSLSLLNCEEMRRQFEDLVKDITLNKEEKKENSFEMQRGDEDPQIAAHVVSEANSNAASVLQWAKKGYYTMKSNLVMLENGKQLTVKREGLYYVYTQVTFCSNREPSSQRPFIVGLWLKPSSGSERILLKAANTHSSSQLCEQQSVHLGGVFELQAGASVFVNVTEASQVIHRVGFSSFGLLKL
# Key:
# [1] = target: T1, dimeric murine CD40L (prepared …); assay: BIAcore SPR, CD40/Fc captured by goat anti-human IgG1 Fc; K2 (site 2); experiment 1
# [2] = target: T1, dimeric murine CD40L (prepared …); assay: BIAcore SPR, CD40/Fc captured by goat anti-human IgG1 Fc; K1 (site 1); experiment 1
binder,measurement,setting,value
"CD40/Fc fusion protein (extracellular domain of human CD40 fused to the Fc domain of human IgG1) (Fc fusion, UniProt P25942 21-193, looked up, extracellular domain; Prepared as in WO 93/08207; also called C40/Fc; CD40/Fc dimer; not shown: Fc domain of human IgG1) EPPTACREKQYLINSQCCSLCQPGQKLVSDCTEFTETECLPCGESEFLDTWNRETHCHQHKYCDPNLGLRVQQKGTSETDTICTCEEGWHCTSEACESCVLHRSCSPGFGVKQIATGVSDTICEPCPVGFFSNVSSAFEKCHPWTSCETKDLVVQQAGTNKTDVVCGPQDRLR",Ka,[1],4e+07 M⁻¹
same,Ka,[2],7e+09 M⁻¹

# — patent publication EP0832229B1 (IMMUNEX CORPORATION, dated 2004)
